Results from ChEMBL document CHEMBL1153427, “1-Sulfonyl-4-acylpiperazines as selective cannabinoid-1 receptor (CB1R) inverse agonists for the treatment of obesity” (J Med Chem, 2009).

By UniProt entry, the sequences of proteins in these tests, tags left out. Where a name states a change or a piece, a line headed by the entry shows the natural chain unless it says otherwise.
UniProt Q12809: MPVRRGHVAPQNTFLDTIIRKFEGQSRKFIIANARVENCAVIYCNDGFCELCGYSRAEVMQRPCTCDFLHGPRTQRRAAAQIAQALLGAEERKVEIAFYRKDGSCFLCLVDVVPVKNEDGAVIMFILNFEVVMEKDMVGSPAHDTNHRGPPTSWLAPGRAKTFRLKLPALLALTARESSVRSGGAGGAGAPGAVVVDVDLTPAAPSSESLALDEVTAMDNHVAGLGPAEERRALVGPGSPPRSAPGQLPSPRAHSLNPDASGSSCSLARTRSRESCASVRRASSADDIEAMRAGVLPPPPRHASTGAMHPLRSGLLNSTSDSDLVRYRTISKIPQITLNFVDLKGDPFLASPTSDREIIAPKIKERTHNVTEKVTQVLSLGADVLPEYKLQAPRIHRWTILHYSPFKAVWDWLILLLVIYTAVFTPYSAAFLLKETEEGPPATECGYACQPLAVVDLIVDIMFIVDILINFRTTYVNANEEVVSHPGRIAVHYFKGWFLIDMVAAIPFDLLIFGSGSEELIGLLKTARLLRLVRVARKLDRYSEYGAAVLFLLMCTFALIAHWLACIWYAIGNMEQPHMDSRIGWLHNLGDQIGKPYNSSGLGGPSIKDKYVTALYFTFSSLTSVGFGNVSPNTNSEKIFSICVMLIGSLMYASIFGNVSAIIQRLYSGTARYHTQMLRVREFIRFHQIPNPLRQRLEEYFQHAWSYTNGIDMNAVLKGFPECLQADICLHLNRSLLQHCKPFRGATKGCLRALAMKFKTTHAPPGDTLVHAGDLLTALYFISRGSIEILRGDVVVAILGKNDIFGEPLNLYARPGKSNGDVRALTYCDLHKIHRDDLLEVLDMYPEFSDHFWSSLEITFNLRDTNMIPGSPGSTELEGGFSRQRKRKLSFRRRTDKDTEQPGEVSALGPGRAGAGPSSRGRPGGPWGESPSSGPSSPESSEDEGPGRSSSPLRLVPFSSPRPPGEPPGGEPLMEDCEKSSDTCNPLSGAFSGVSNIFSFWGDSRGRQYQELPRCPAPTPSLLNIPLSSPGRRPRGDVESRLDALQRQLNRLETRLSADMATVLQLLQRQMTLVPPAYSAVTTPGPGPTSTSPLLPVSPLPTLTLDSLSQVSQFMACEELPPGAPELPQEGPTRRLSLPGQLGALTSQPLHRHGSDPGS

Target: Voltage-gated inwardly rectifying potassium channel KCNH2 (Homo sapiens, UniProt Q12809)
Assay: Inhibition of human ERG by MK-0499 binding assay

First: Cc1[nH]ncc1-c1cc(C(F)(F)F)cc(S(=O)(=O)N2CCN(C(=O)[C@@H]3C[C@H]3c3ccc(C(F)(F)F)cc3)CC2)c1
Second: O=C([C@@H]1C[C@H]1c1ccc(C(F)(F)F)cc1)N1CCN(S(=O)(=O)c2cc(-c3cn[nH]c3)cc(C(F)(F)F)c2)CC1
The IC50 of the first is 12-fold lower: 40 nM for the first, 500 nM for the second. The first is the more potent here.

Compared with Cc1nnc(-c2cc(C(F)(F)F)cc(S(=O)(=O)N3CCN(C(=O)[C@@H]4C[C@H]4c4ccc(C(F)(F)F)cc4)CC3)c2)[nH]1, O=C1CSC(c2cc(C(F)(F)F)cc(S(=O)(=O)N3CCN(C(=O)[C@@H]4C[C@H]4c4ccc(C(F)(F)F)cc4)CC3)c2)=N1 is 3.1-fold higher in IC50: 1300 nM for the first, 4000 nM for the second. The first is the more potent here.

In the case of O=C([C@@H]1C[C@H]1c1ccc(C(F)(F)F)cc1)N1CCN(S(=O)(=O)c2cc(C(F)(F)F)cc(C(F)(F)CO)c2)CC1, the IC50 is reported as 2500 nM.
